Results: article PMC7821381, “Multi-Targeted Anticancer Activity of Imidazolate Phosphane Gold(I) Compounds by Inhibition of DHFR and TrxR in Breast Cancer Cells” (Frontiers in Chemistry, 2021)

Tested on: SKBR3 cells
Experiment: MTT cell viability assay on SKBR3 cells
Format: cell-based, human
Details: 72 h (Figure 1S) and 48 h (Figure 2)
Text: Human MDA-MB-231 (ER–/PR–/HER2–) and SK-BR-3 (ER–/PR–/HER2+) cells were obtained from American Type Culture Collection (Rockville, MD) and cultured in Dulbecco's Modified Essential Medium (DMEM, Gibco, Life Technologies) supplemented with 10% fetal bovine serum (FBS, Gibco, Life Technologies) and 1% penicillin–streptomycin (Gibco, Life Technologies). A17 cells were established from a spontaneous lobular carcinoma that arose in an FVB/neuT mouse (Galiè et al., [2005]), and maintained in DMEM plus 20% FBS and 1% penicillin-streptomycin. Cells were cultured at 37°C under humidified atmosphere with 5% CO2.
Stock solutions were prepared for each gold(I) compound (50 mM) using dimethyl sulfoxide (DMSO) (Sigma-Aldrich) as solvent. The effects of gold(I) compounds on SKBR3, A17 and MDA-MB231 cells viability were evaluated by seeding, respectively, 10, ^*10^3, 2.5 ^*10^3, 7, ^*10^3 cells/well in 96 wells plates in complete medium (DMEM supplemented with FBS) and compared to those of cisplatin. […] Cell viability was determined using a MTT [3-(4,5-dimethylthiazol-2-yl)-2,5-diphenyl-2H-tetrazolium bromide Sigma Aldrich, St. Louis, MO] assay, which is based on the conversion of MTT to formazan crystals by mitochondrial enzymes, after 24, 48, and 72 h. The formazan deposits were dissolved in DMSO and the absorbance of each well was measured at 540 nm in Multiskan Ascent 96/384 Plate Reader. […]

(4-hydroxy-methyl)imidazolyl-1H-gold(I)-(2-benzoic-diphenylphosphane acid) [Compound 3]
cytotoxic activity in MTT screening: did not show relevant cytotoxic activity
